Assay results as given in patent US4104397A, “Spiro (1,3-dioxolane-4,3') quinuclidine compounds” (The Purdue Frederick Company, priority 1975, dated 1978).

Amino acid sequences for entries named in this document (tags omitted). Residues count along the entry.
UniProt H0W1Z3, 1-590: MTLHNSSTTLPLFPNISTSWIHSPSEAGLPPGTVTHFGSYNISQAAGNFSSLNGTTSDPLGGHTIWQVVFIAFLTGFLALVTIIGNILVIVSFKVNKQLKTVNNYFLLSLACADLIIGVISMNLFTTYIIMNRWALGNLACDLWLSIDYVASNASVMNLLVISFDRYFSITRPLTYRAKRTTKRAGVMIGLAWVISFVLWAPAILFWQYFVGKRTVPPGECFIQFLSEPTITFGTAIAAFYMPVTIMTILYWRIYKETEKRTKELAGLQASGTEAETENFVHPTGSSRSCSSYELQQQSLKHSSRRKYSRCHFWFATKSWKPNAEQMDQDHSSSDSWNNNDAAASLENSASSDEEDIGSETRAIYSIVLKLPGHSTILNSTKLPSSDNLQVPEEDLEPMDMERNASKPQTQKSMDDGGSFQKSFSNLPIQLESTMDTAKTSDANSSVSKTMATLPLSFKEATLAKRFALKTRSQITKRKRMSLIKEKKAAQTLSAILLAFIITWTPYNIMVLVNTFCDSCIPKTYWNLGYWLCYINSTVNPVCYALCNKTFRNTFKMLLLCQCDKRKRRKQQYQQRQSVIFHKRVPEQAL

Molecular target: T1, Guinea-pig ileum (Cavia porcellus, UniProt H0W1Z3)
T1 construct: Guinea-pig ileum, log Ki; from tissue; host or cells: guinea-pig ileum
Assay: Antagonism in guinea-pig ileum (log Ki), Table 3
Assay type: cell-based
Details: printed as log Ki (negative)
Source text: |Guinea-pig ileum, log Ki

Question: For `CN1[C@@H]2CC[C@H]1CC(OC(=O)C(CO)c1ccccc1)C2` (stereo partly shown) [Atropine Sulphate], which Ki is on record?
Answer: 1 nM
